Values of other authors as cited in patent US8697648B2, “Protein agent for diabetes treatment and β cell imaging” (Georgia State University Research Foundation, Inc., priority 2009, dated 2014).

Details: in human; cited from earlier work

Substance: Exendin 4 [reference compound]
- blood circulation time: approximately 3 hour
